Source: ChEMBL document CHEMBL1147599 (Bioorg Med Chem Lett, 2004)
Some compounds may have been tested in ways that are not shown here.

Amino acid sequences for entries named in this document (tags omitted).
UniProt P49146, whole entry: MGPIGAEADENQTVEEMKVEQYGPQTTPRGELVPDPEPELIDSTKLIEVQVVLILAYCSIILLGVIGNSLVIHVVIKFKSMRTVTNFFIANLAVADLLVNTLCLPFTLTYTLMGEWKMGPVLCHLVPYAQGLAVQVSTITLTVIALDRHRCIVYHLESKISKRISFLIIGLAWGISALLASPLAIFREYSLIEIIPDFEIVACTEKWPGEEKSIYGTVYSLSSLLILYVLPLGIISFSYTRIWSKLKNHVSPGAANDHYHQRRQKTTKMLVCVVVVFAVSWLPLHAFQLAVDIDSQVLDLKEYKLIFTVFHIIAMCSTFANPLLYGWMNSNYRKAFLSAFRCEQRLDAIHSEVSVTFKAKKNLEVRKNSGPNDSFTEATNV

Target: Neuropeptide Y receptor type 2 (Homo sapiens, UniProt P49146)
Experiment: Binding affinity towards the NPY Y2 receptor

| Compound | IC50 [µM] |
| --- | --- |
| CC(=O)N1CCc2ccc(N(C(=O)/C=C/C3N=CC=N3)C3CCN(Cc4ccccc4)CC3)cc21 | 17 |
| CC(=O)N1CCc2ccc(N(C(=O)C/C=C/c3ccccc3)C3CCN(Cc4ccccc4)CC3)cc21 | 11 |
